Results published in patent US20210047398A1, “ASPROSIN, A FAST-INDUCED GLUCOGENIC PROTEIN HORMONE” (Baylor College of Medicine, priority 2016, published 2021).

Assays:
[1] = tested on: mouse primary hepatocytes; experiment: Hepatocyte cAMP level and PKA activity; settings: 50 nM recombinant asprosin, 2 hours; suramin 5 μM, insulin 10 mg/L
Method: (§1) Cell Culture. Primary mouse hepatocytes were isolated from 8- to 12-week-old WT mice using standard methodology. […] The cells were treated with 50 nM recombinant asprosin or GFP for 10 minutes for cAMP and PKA assays and for 2 hours for the in vitro glucose production assay. Cells were pretreated with various inhibitors for 1 hour prior to treatment with asprosin, GFP, Glucagon or Epinephrine. cAMP was measured from cell lysates using the cAMP direct immunoassay kit from Cell Biolabs. PKA activity was measured from cell lysates using the PKA kinase activity kit from Enzo Lifesciences, Inc. Media glucose content was measured using the Glucose Colorimetric Assay Kit from Biovision. Results were normalized to protein content.

[2] = tested on: mouse primary hepatocytes; experiment: In vitro glucose production assay (media glucose accumulation); settings: 50 nM recombinant asprosin, 2 hours; suramin 5 μM, cAMPS-Rp 200 μM, insulin 10 mg/L, antibody 50 ug pretreatment
Method: as §1

insulin [reference compound]
effect on asprosin-mediated hepatocyte PKA activation [1]: suppressed | effect on asprosin mediated hepatocyte glucose release [2]: suppressed
